Measured values from publication PMC6034706 (ChemMedChem, 2017).

Tests used:
E. coli = test: Cell viability assay, bacterial growth; format: cell-based; details: relative to untreated cells
VIM2 = VIM2 (Escherichia coli, UniProt Q5U7L7); format: biochemical, P. aeruginosa
VIM2 expressing E. coli = format: cell-based; details: relative to untreated cells

## [Na+].[O-]n1ccccc1=S [Compound 2b]
E. coli; compound alone
  relative percentage growth, E. coli, Amox (−): 5.3%
E. coli; with 50 μM amoxicillin
  relative percentage growth, E. coli, Amox (+): 1.9%
VIM2
  fold difference in Ki relative to compound 3: 20 fold
VIM2; LE = -1.38 log (Ki) / N, N = number of heavy atoms
  LE (ligand efficiency): 1.15
VIM2 expressing E. coli; compound alone
  relative percentage growth, VIM2 expressing E. coli, Amox (−): 11%
VIM2 expressing E. coli; with 50 μM amoxicillin
  relative percentage growth, VIM2 expressing E. coli, Amox (+): 2.1%

## On1ccccc1=S [Compound 2, 1-Hydroxypyridine-2-thione]
VIM2
  fold difference in Ki relative to compound 3: 20 fold
